Hits are enriched below; roughly 0.59% of the tested compounds scored in any of these assays.
AT treatment: potential ataxia-telangiectasia treatments restoring KAP-1 phosphorylation | F2112 A-T fibroblasts, KAP-1 phosphorylation AlphaLISA; neocarzinostatin DNA damage 30 min before lysis | Potency, µM (titrated, usually from 57.5 µM), for the others: at the highest dose activation, most hits filed as activators | actives 0.19% (n = 320,000); active = well fitted activation curve with a large enough effect; inconclusive = small, poorly fitted or top-dose-only effect; inactive = no such curve, though single readings can be large or run the other way; note: potency is the fitted concentration of half-maximal effect; % of control where 0% means no effect; nearly all actives have a fitted effect of over 45% in size
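ATM-like activity read as KAP-1 phosphorylation via AlphaLISA donor/acceptor antibody pairs after lysis and 6 hr at 25C. Cells were ATM-null patient fibroblasts (F2112, hTERT), dosed 60 min, then exposed to the DSB inducer NCS for 30 min.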
Rango-impB inh: Rango-importin beta binding inhibition | Q14974 | Rango CFP/YFP FRET sensor + importin beta, 45 min | Potency, µM (doses to about 92.2 µM), for inactives: at the highest dose inhibition of complex formation | actives 0.031% (n = 340,000) | AID 540263;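 note: potency is the fitted concentration of half-maximal effect; 0% = DMSO wells and 100% = buffer wells lacking importin beta; nearly all actives have a fitted effect of over 15% in size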
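Inhibition scored from the CFP 486 nm/YFP 530 nm FRET ratio 45 min after adding 0.125 microM importin beta to 50 nM Rango biosensor preincubated 5 min with compound (room temperature, PBS with DTT, Tween-20, BSA). No-importin wells as positive control.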
IL2 activator: IL-2 activation; activation, % (series mostly up to about 46 µM); AID 652025; IL-2 activation reporter assay, cell-based qHTS; stimulated with anti-CD3/CD4/CD28 beads; in transgenic mouse T cells; actives 0.065% (n = 360,000); in the data active = activation above about 50%; inconclusive = mostly about 30% to 49%; note: 0% is about no effect
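First, unstimulated transgenic mouse T cells were exposed to compound for 60 min. Next, anti-CD3/anti-CD4-coated beads with anti-CD28 were added. Finally, after 18 h at 37 degrees C, EGFP and DsRed were imaged.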
PKM2 activator: increases activity of human pyruvate kinase M2 | P14618 | purified PKM2, Kinase-Glo ATP luminescence, activation; response scale: 0% is enzyme alone, no compound | Potency, µM (doses to about 57.5 µM), for inactives: at the top dose activation, hits mostly activators | actives 0.34% (n = 260,000); active = well fitted activation curve with a large enough effect; inconclusive = small, poorly fitted or top-dose-only effect; inactive = no such curve, though single readings can be large or run the other way; note: potency is the fitted concentration of half-maximal effect; % is set by controls: 0 for no effect and ±100 for the full control effect; nearly all actives have a fitted effect of over 55% in size
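Purified hPK-M2 (>95% pure) converted ADP (0.1 mM final) to ATP with 0.5 mM PEP in 50 mM imidazole pH7.2, KCl, MgCl2, Tween 20, BSA; 1 h at room temperature. ATP detected by Kinase-Glo luminescence.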
Rango dissoc inh: inhibition of RanGTP-driven Rango-importin beta dissociation; AID 540253; actives 0.071% (n = 340,000); O95149+P62826; Potency, µM (highest dose often 46.1 µM), without a hit: at the top dose activity change, negative = inhibition; Biochemical FRET Rango-importin beta, RanGTP-induced dissociation; note: potency is the fitted concentration of half-maximal effect; % of control where 0% means no effect; nearly all actives have a fitted effect of over 45% in size
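Quantitative HTS using a FRET biosensor: 0.1 uM Rango, 0.25 uM importin beta, 0.6 uM Ran, 2 mM GTP, 0.2 uM RCC1 final, PBS with DTT, Tween-20 and BSA. Post-read taken 45 min after Ran addition.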
Active calls of the source: *; ? = inconclusive; . = no result. Unless noted, calls come from the whole dose curve.

| nr | Compound | AT treatment | Rango dissoc inh | IL2 activator |
| --- | --- | --- | --- | --- |
| 1 | COC(=O)c1cccc(-n2c(CCC(=O)O)ccc2-c2cccs2)c1 | 0% | -10% | -2 |
| 2 | O=C(O)CCc1ccc(-c2cccs2)n1CC1CCCO1 (stereo unspecified) | 4% | 5.2µM* | -2 |
| 3 | Cc1c(C#N)c2n(c1C)CCCC(=O)N2 | . | . | 0 |
| 4 | CCCCCCCCOc1ccc(C2CC(=O)NC2=O)cc1 (stereo unspecified) | 5% | 10% | -1 |
| 5 | O=C1CC(c2ccc(OCCCCCOc3ccc(C4CC(=O)NC4=O)cc3)cc2)C(=O)N1 (stereo unspecified) | 8% | 0% | -2 |
| 6 | O=S(=O)(Nc1cccc2nsnc12)c1ccccc1 | -4% | 25% | -2 |
| 7 | CN(C)c1ccc(/C=C2/C[N+](C)(C)C/C(=C/c3ccc(N(C)C)cc3)C2=O)cc1 | . | 16µM* | 8 |
| 8 | CC(C)/C=C1\CC/C(=C\c2ccc(N(C)C)cc2)C1=O | 0% | ? | 10 |
| 9 | Cc1cccc(-c2ccc3[nH]c4c(c3c2)CCN2C[C@@H]([C@H](C)OC(=O)Nc3ccccc3C)[C@@H](N(C)C(=O)Nc3ccccc3C)C[C@@H]42)c1 | . | . | -3 |
| 10 | COC(=O)N=Nc1c(O)n(Cc2ccccc2)c2ccccc12 | 25µM* | -2% | -1 |
| 11 | CCOC(=O)N=Nc1c(O)n(Cc2ccccc2)c2ccccc12 | -2% | -13% | 0 |
| 12 | C[C@H](O)Cc1cn(-c2cc3cc(C#Cc4ccsc4)ccc3oc2=O)nn1 | 10% | 13% | 0 |
| 13 | Cc1cc(Nc2ccccc2)nc2cc(O)ccc12 | 4% | 7.3µM* | 0 |
| 14 | COc1cc(CC(=O)OCC(=O)NCc2cccs2)cc(OC)c1OC | 13% | 4% | 1 |
| 15 | Cc1ccc(NC(=O)NC(=O)N(C(C)C)S(C)(=O)=O)nc1 | 0.71µM* | -14% | -3 |

| nr | PKM2 activator | Rango-impB inh |
| --- | --- | --- |
| 1 | 18µM* | ? |
| 2 | 13% | ? |
| 3 | . | . |
| 4 | 0% | 0% |
| 5 | 14µM* | -3% |
| 6 | ? | 29µM* |
| 7 | . | ? |
| 8 | 6% | ? |
| 9 | . | . |
| 10 | 5% | -1% |
| 11 | -1% | -2% |
| 12 | . | -3% |
| 13 | 0% | ? |
| 14 | . | 0% |
| 15 | -14% | 1% |

The results go on.
| nr | Compound | AT treatment | Rango dissoc inh | IL2 activator |
| --- | --- | --- | --- | --- |
| 16 | CC(C)N(C(=O)NC(=O)Nc1ccccn1)S(C)(=O)=O | 11% | 10% | 0 |
| 17 | COC(=O)[C@H]1[C@H]2C[C@@H]3c4[nH]c5cc(OC)ccc5c4CCN3C[C@H]2C[C@@H](OC(=O)c2cc(OC)c(OC)c(OC)c2)[C@@H]1OC | -7% | 12µM* | 0 |
| 18 | COC(=O)C1C2CC3c4[nH]c5cc(OC)ccc5c4CCN3CC2CC(OC2CCCCO2)C1OC (stereo unspecified) | . | . | 7 |
| 19 | Cc1ccc(-c2nn(-c3ccccc3)cc2CN(Cc2ccccc2)C(=O)c2ccco2)o1 | . | -8% | -3 |
| 20 | O=C1OC(c2ccccc2)=C/C1=C/N1CCOCC1 | -11% | 0% | -1 |
| 21 | COc1ccc(OC)c(C=Nc2ccccc2-c2nc3ccccc3[nH]2)c1 | 8% | -11% | 0 |
| 22 | COc1ccc(OC)c(/C=C/c2nc3ccccc3[nH]c2=O)c1 | 2% | ? | 139* |
| 23 | Cc1cccc2c3nc4ccccc4nc3n(CCCN3C(=O)c4ccccc4C3=O)c12 | 6% | -5% | -2 |
| 24 | COc1ccc(-c2ncncc2-c2csc(C)n2)c(O)c1OC | -1% | -13% | 0 |
| 25 | COC1=C(N)C(=O)c2nc(-c3nc(C(=O)O)c(C)c(-c4ccc(OC)c(OC)c4O)c3N)ccc2C1=O | 0.71µM* | ? | -1 |
| 26 | COc1cccc(OC)c1NC(=O)CN(C)S(=O)(=O)c1ccc2c(c1)OCCO2 | 2% | -8% | 0 |
| 27 | CSc1ccccc1NC(=O)c1cccs1 | 5% | 4% | 0 |
| 28 | O=C(Nc1ccccc1Oc1ccccc1)c1cccs1 | 3.5µM* | 2% | -2 |
| 29 | O=C(c1ccccc1)N1N=C(c2ccccc2)CC1c1ccccc1O (stereo unspecified) | 8% | 11% | -3 |
| 30 | O=C(c1ccncc1)N1N=C(c2ccc(Br)cc2)CC1c1ccccc1O (stereo unspecified) | -1% | -14% | 0 |

| nr | PKM2 activator | Rango-impB inh |
| --- | --- | --- |
| 16 | -2% | ? |
| 17 | . | ? |
| 18 | . | . |
| 19 | 25µM* | -2% |
| 20 | 16µM* | 2% |
| 21 | 10% | -4% |
| 22 | -7% | ? |
| 23 | 5% | ? |
| 24 | 5% | 2% |
| 25 | -1% | ? |
| 26 | 1% | -1% |
| 27 | -2% | 7% |
| 28 | . | 0% |
| 29 | 0% | 0% |
| 30 | 7.9µM* | -5% |

(continued)
| nr | Compound | AT treatment | Rango dissoc inh | IL2 activator |
| --- | --- | --- | --- | --- |
| 31 | COC(=O)C(=O)/C=C(\O)c1c(C)cc(C)cc1C | 7% | 7% | 1 |
| 32 | COc1ccc(OC)c(/C(O)=C/C(=O)C(=O)Nc2cc(C)cc(C)c2)c1 | -3% | -14% | 0 |
| 33 | O=C(c1ccc(Cn2cc(Br)cn2)cc1)N1CCN(c2ccccc2)CC1 | 4% | 1% | -1 |
| 34 | O=C(c1ccc(Br)cc1)N1CCN(Cc2ccccc2)CC1 | 11% | 0% | -1 |
| 35 | O=C(c1ccc(CN2CCOCC2)cc1)N1CCN(c2cccc(Cl)c2)CC1 | 3% | 4% | -1 |
| 36 | O=C(c1ccc(Cn2cc(Cl)cn2)cc1)N1CCN(c2ccccc2)CC1 | . | 0% | -4 |
| 37 | Cc1ccccc1OC1CCN(C(=O)C2CCC(=O)N(C3CCCC3)C2)CC1 (stereo unspecified) | 8% | -16% | 0 |
| 38 | CCC1=C2CC[C@H]3C(=O)N(CC)C(=O)[C@H]3[C@H]2[C@@]2(Cc3ccccc3)C(=NCC3CC3)OC(=O)N2C1=O | . | . | . |
| 39 | Cc1cc(C)n(-c2nc(NCCN(C)C)c3c4c(sc3n2)CCCC4)n1 | 40µM* | -10% | -1 |
| 40 | CCN(CC)CCNc1nc(-n2nc(C)cc2C)nc2sc3c(c12)CC(C)(C)OC3 | 35µM* | 6% | 1 |
| 41 | Cc1cc(C)n(-c2nc(NCCN(C)C)c3c4c(sc3n2)COC(C)(C)C4)n1 | -12% | 10% | -1 |
| 42 | CNC(=O)c1ccc(-c2sc3nc(N4CCOCC4)c4c(c3c2N)CC(C)(C)OC4)o1 | 4.5µM* | ? | -1 |
| 43 | Cc1ccc(C)c(OC(C)C(=O)Nc2ccc(S(=O)(=O)Nc3nccs3)cc2)c1 (stereo unspecified) | 0% | -7% | -1 |
| 44 | COc1ccc(C(=O)COC(=O)c2cc(=O)c3ccccc3o2)c(OC)c1 | . | . | 2 |
| 45 | O=S(=O)(Nc1ccc(Cc2ccncc2)cc1)c1cccs1 | 3% | -2% | -1 |

| nr | PKM2 activator | Rango-impB inh |
| --- | --- | --- |
| 31 | 0% | 65µM* |
| 32 | -1% | 3% |
| 33 | 4.5µM* | ? |
| 34 | 1% | -1% |
| 35 | -2% | 5% |
| 36 | 16µM* | 3% |
| 37 | . | 4% |
| 38 | -9% | . |
| 39 | -23% | 3% |
| 40 | 1% | 1% |
| 41 | -4% | 0% |
| 42 | 12% | ? |
| 43 | 9% | ? |
| 44 | . | . |
| 45 | 26% | ? |

Random excerpt: 5 records from the list
| nr | Compound | AT treatment | Rango dissoc inh | IL2 activator |
| --- | --- | --- | --- | --- |
| 38 | CCC1=C2CC[C@H]3C(=O)N(CC)C(=O)[C@H]3[C@H]2[C@@]2(Cc3ccccc3)C(=NCC3CC3)OC(=O)N2C1=O | . | . | . |
| 33 | O=C(c1ccc(Cn2cc(Br)cn2)cc1)N1CCN(c2ccccc2)CC1 | 4% | 1% | -1 |
| 39 | Cc1cc(C)n(-c2nc(NCCN(C)C)c3c4c(sc3n2)CCCC4)n1 | 40µM* | -10% | -1 |
| 32 | COc1ccc(OC)c(/C(O)=C/C(=O)C(=O)Nc2cc(C)cc(C)c2)c1 | -3% | -14% | 0 |
| 37 | Cc1ccccc1OC1CCN(C(=O)C2CCC(=O)N(C3CCCC3)C2)CC1 (stereo unspecified) | 8% | -16% | 0 |

| nr | PKM2 activator | Rango-impB inh |
| --- | --- | --- |
| 38 | -9% | . |
| 33 | 4.5µM* | ? |
| 39 | -23% | 3% |
| 32 | -1% | 3% |
| 37 | . | 4% |

The results go on.
| nr | Compound | AT treatment | Rango dissoc inh | IL2 activator |
| --- | --- | --- | --- | --- |
| 46 | N#CCc1ccc(NS(=O)(=O)c2cccs2)cc1 | 13% | 1% | -2 |
| 47 | Cc1cc(=O)n2c3c(sc2n1)C(=O)N(Cc1ccccc1)C3=O | 15% | . | . |
| 48 | Cc1cc(=O)n2nc(-c3ccccc3)sc2n1 | -2% | 3% | 0 |
| 49 | CCOc1ccc(CNc2cccc(SC)c2)cc1 | 2% | 4% | -1 |

| nr | PKM2 activator | Rango-impB inh |
| --- | --- | --- |
| 46 | 18µM* | -4% |
| 47 | 28µM* | . |
| 48 | 2% | 0% |
| 49 | 14µM* | 1% |

Assay outcomes from PubChem.
